Consider 26 compounds from PubChem BioAssay AID1918969 (ICCB-Longwood Screening Facility, Harvard Medical School, 2023).

The entries are a selection whose mix differs from that of the whole data set. Some results for these compounds are left out of this collection, so the calls shown say nothing about other tests. Activity calls are given as the source filed them. No stated cut-off is given here; in the data, active means inhibition above about 27% (passing the limit was not always enough); inactive means the rest.

For this assay, the system named is HCMV UL50-UL53 nuclear egress complex (human cytomegalovirus). Kind of assay: inhibitors of HCMV UL50-UL53 interaction, biochemical, HTRF (AID 1918969). The conditions noted are these: normalized percent inhibition, stronger effect = higher value, concentration not given here. (Time-resolved FRET reads energy transfer from a long-lived donor to a nearby acceptor.)
Consider `Cc1ccc2oc(C(=O)NCC3(N(C)C)CCCCC3)c(C)c2c1`, for which the inhibition (commonly the relative decrease from the control value, in per cent) was inactive: -12.1%.

With `O=C(NCC1(N2CCOCC2)CCCCC1)c1cnc(Cl)c(Cl)c1`, the inhibition was inactive: -9.8%.

Turning to `CN(C)C1(CNC(=O)c2cccc(Cl)c2)CCCCC1`, the inhibition is inactive: -16.4%.

Consider `CN(C)C1(CNC(=O)c2ccccc2F)CCCCC1`, for which the inhibition was inactive: -17.9%.

For the compound `CN(C)C1(CNC(=O)c2ccccc2[N+](=O)[O-])CCCCC1`, the inhibition was inactive: -26.7%.

With `CN(C)c1ccc(C(=O)NCC2(N(C)C)CCCCC2)cc1`, the inhibition is inactive: -14.6%.

Take `Cc1cc(C)c2c(C)c(C(=O)NCC3(N(C)C)CCCCC3)oc2c1`: the inhibition is inactive: -6.4%.

Turning to `CCCCOc1ccccc1C(=O)NCC1(N(C)C)CCCCC1`, the inhibition was inactive: -13.3%.

For `COc1ccc(OC)c(C=C(C#N)C#N)c1`, the inhibition is inactive: -17.7%.

For `Cc1c(C(=O)NCC2(N(C)C)CCCCC2)oc2ccccc12`, the inhibition was inactive: -20.5%.

Take `Cc1cc2oc(C(=O)NCC3(N(C)C)CCCCC3)c(C)c2cc1Cl`: the inhibition was inactive: -5.9%.

Consider `CCOc1cccc(C(=O)NCC2(N(C)C)CCCCC2)c1`, for which the inhibition is inactive: -19.9%.

In the case of `Cc1c(C(=O)NCC2(N(C)C)CCCCC2)oc2ccc(F)cc12`, the inhibition was inactive: 3.7%.

Turning to `COc1ccc(C(=O)NCC2(N(C)C)CCCCC2)cc1Cl`, the inhibition is inactive: -22.6%.

Regarding `CN(C)C1(CNC(=O)c2ccncc2)CCCCC1`, the inhibition is inactive: -1.8%.

In the case of `N#CC(C#N)=Cc1ccccc1`, the inhibition was inactive: -7.9%.

In the case of `Cc1ccc2c(C)c(C(=O)NCC3(N(C)C)CCCCC3)oc2c1`, the inhibition is inactive: -19.3%.

Take `O=C(OC1CN2CCC1CC2)C(CO)(c1ccccc1)c1ccccc1` (stereo unspecified): the inhibition was inactive: -8%.

For `COc1cccc(C(=O)NCC2(N3CCOCC3)CCCCC2)c1`, the inhibition was inactive: 6.5%.

Take `CC(C)COc1ccc(C(=O)NCC2(N(C)C)CCCCC2)cc1`: the inhibition is inactive: -35.7%.

On to `Cc1ccc2c(Cl)c(C(=O)NCC3(N(C)C)CCCCC3)sc2c1`, for which the inhibition is inactive: -57.1%.

Turning to `COc1cc(C(=O)NCC2(N(C)C)CCCCC2)cc(OC)c1OC`, the inhibition was inactive: -18.9%.

In the case of `Cc1cccc(C(=O)NCC2(N(C)C)CCCCC2)c1`, the inhibition is inactive: -29.5%.

On to `CN1C2CCC1CC(OC(=O)C(O)(c1ccccc1)c1ccccc1)C2` (stereo unspecified), for which the inhibition was inactive: -22.9%.

Consider `O=C(NCC1(N2CCCCC2)CCCCC1)c1ccc2c(c1)OCCO2`, for which the inhibition was inactive: -19.6%.

For the compound `CC(C)Oc1ccc(C(=O)NCC2(N(C)C)CCCCC2)cc1`, the inhibition is inactive: -28%.
